For 2 molecules, Selectivity ratio results are on record in ChEMBL document CHEMBL1150411, “4-(Phenylaminomethylene)isoquinoline-1,3(2H,4H)-diones as potent and selective inhibitors of the cyclin-dependent kinase 4 (CDK4)” (J Med Chem, 2008).

The test system of assay [1] is Sf9. Description: Selectivity for CDK4/cyclin D1 expressed in Sf9 cells-baculovirus system over CDK1/Cyclin B1 expressed in Sf9 cells-baculovirus system.
Assay [2] relates to Sf9. Description: Selectivity for CDK4/cyclin D1 expressed in Sf9 cells-baculovirus system over CDK2/cyclin E expressed in Sf9 cells-baculovirus system.

As for `CN1CCN(c2ccc(N/C=C3\C(=O)NC(=O)c4ccc(-c5ccsc5)cc43)cc2)CC1`, the Selectivity ratio in assay [1] and in assay [2] was 500 in each case.
For the molecule `O=C1NC(=O)c2ccc(-n3cccc3)cc2/C1=C/Nc1ccc(CN2CCCCC2)cc1`, the Selectivity ratio in assay [1] and in assay [2] was more than 357 in each case.
